Test results as given in patent publication US20070276025A1, “Indirubin-Type Compounds, Compositions, and Methods for Their Use” (priority 2003, published 2007).
Read-outs that look alike come from different tables or passages of the source.

The chains behind the UniProt entries cited, without tags or fusion partners.
UniProt Q00535, whole entry, species assumed: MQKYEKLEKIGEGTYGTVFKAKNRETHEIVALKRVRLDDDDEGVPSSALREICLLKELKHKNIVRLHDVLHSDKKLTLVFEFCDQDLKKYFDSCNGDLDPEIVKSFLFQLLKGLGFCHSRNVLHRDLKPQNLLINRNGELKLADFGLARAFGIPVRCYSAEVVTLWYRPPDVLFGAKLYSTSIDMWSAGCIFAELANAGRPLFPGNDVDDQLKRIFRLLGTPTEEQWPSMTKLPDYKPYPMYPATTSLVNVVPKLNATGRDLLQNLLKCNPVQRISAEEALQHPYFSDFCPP

Experiments:
[1] = molecular target: GSK-3α/β; assay: GSK-3α/β kinase assay (GS-1 peptide, 15 μM ATP); assay type: biochemical, porcine
[2] = molecular target: CDK5/p25 (Homo sapiens, UniProt Q00535); assay: CDK5/p25 kinase assay (histone H1, 15 μM ATP); assay type: biochemical, mammalian
[3] = molecular target: CDK1/cyclin B; assay: CDK1/cyclin B kinase assay (histone H1, 15 μM ATP); assay type: biochemical, starfish (Marthasterias glacialis); conditions: Table 5

## 6-Chloroindirubin [5d]
[1]; Table 4, read-out: IC50 GSK-3
  IC50: 140 nM
[1]; Table 5, read-out: IC50 GSK-3α/β
  IC50: 140 nM
[1]; Table 7, GSK-3, read-out: IC50exp
  IC50: 140 nM

## O=C1Nc2ccccc2/C1=C1/Nc2ccccc2C1=O [5h, indirubin]
[2]; Table 1
  IC50: 10000 nM
[2]; Table 5
  IC50: 10000 nM

## C=Cc1ccc2c(c1)NC(=O)C2=C1Nc2ccccc2C1=NO [7i, 6-Vinylindirubin-3′-oxime]
[3]
  IC50: 1200 nM
